The record followed here is PubChem BioAssay AID1878 (Sanford-Burnham Center for Chemical Genomics, 2009).

Sequences of proteins named here, by UniProt entry; tags and fusion partners are left off. A change or cut given only in a name is not applied to a line headed by its entry.
UniProt P51452: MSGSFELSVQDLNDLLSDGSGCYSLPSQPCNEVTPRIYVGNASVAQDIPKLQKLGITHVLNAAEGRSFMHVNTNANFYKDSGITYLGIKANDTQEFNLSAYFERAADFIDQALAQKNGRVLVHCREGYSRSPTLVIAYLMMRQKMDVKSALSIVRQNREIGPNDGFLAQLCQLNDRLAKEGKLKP

The structures appear in SMILES notation. Only a part is listed here, and it is no random draw. Entries with a potency or affinity are not part of this list. Activity calls are given as the source filed them. Rule as the data show it: active = inhibition above about 55%; inactive = the rest.

This experiment addresses Dual specificity protein phosphatase 3 (Homo sapiens) (UniProt P51452). Put plainly: VHR1 phosphatase inhibitors, biochemical (AID 1878). Conditions: recombinant VHR phosphatase, fluorogenic substrate; at 13.3 µM; stronger effect = higher value.
One may read the inhibition as the drop in the measured response relative to a control, in per cent. As to `Nc1cccc2c([As](=O)(O)O)cccc12`, the inhibition was inactive: -6.8%.
